The list is not random: actives were taken first. Their share in the collection is about 2.1%.
ERp5 block: inhibitors of human ERp5 | Q15084 | ERp5 insulin aggregation, absorbance 650 nm, 90 min | inhibition, % at 9.99 µM | 350,000 tested, 0.05% active | AID 651711;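 active means mean replicate inhibition above about 25%, with every replicate also reaching it, limit read from the data, passing the limit was not always enough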
UUG fidelity: alters start codon recognition fidelity in yeast | S. cerevisiae UUG-firefly luciferase reporter, luminescence/redox ratio | activity score, % at 18.7 µM | 350,000 compounds, 0.13% hits | AID 602363;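 active = replicate mean at a twofold rise or more, about +100% in these data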;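 note: firefly luciferase made from a UUG start codon reports start codon fidelity; reporter light over untreated wells divided by growth signal over untreated wells; some hits fall short of that in this replicate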
NR1D1 modulator: modulates human Rev-erb alpha binding to DNA | Rev-erbα–FITC-DNA binding, fluorescence polarization, 90 min | 370,000 tested, 0.79% active | P20393 | activity, % at 10 µM;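 active means activity above about 14%, limit read from the data; passing the limit was not always enough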;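 further: 0% = DMSO wells with 35 nM protein and 100% = DMSO wells with 750 nM protein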
INS-1E GSIS act: primary screen for activators of insulin secretion dependent on glucose, INS-1E cells, GLuc reporter luminescence. INS-1E GLuc reporter insulin secretion, 2-3 h. activation, % at 16.6 µM. 370,000 tested, 0.61% active. AID 743287;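 active means lowest replicate activation of at least 40%, so every replicate reaches that level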;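 further: 0% = median of neutral control wells and 100% = median of IBMX positive control wells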
PDI turbidity: inhibitors of human protein disulfide isomerase; 350,000 tested, 0.052% active; PDI insulin aggregation turbidity, A650, 90 min; P07237; AID 588391; inhibition, % at 10 µM;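 active means mean inhibition across replicates of 30% or more, whatever share of single replicates reach that level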
SMARCA2 act: activators of SMARCA2 function | MG213 cells, MMTV-luciferase reporter, dexamethasone, overnight | activation, % at 9.1 µM | 370,000 tested, 1% active; in the data active means activation above about 7.8%;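 further: 0% = vehicle wells and 100% = reference activator wells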
NR1D1 mod conf: confirmation of modulators of human Rev-erb alpha DNA binding | shares compounds with NR1D1 modulator | Rev-erb alpha FITC-DNA binding, fluorescence polarization, 90 min | activation, % at 25 µM | 3,000 tested, 61% active;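 active means activation at or above a set limit, or at least 3 SD above the negative control mean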;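 further: 0% = 35 nM protein with DMSO and 100% = 750 nM protein high control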
RORg counter: affects RORgamma DNA binding in a Rev-erb alpha counter-screen | shares compounds with NR1D1 modulator | purified RORgamma protein-FITC-DNA binding, fluorescence polarization | IC50, µM | 910 tested, 8% active | AID 1259320;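 active means Compounds whose fitted half-maximal concentration for disrupting protein-DNA binding is below 10 micromolar; the record names Rev-erb in its text, so the target is in doubt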
An asterisk follows results filed as active; i = inactive; . = not tested or not shown.

SMILES	ERp5 block	UUG fidelity	NR1D1 modulator	INS-1E GSIS act	PDI turbidity	SMARCA2 act	NR1D1 mod conf	others
CCc1cc2c(=O)[nH]c(Cc3ccc(Cl)cc3)nc2s1	.	-10.0	19.2*	.	14.9	2.2	18.0*
CCOc1ccc(/C(CC)=N/NC(=O)C2(C)CC2(Br)Br)cc1 (stereo not drawn)	.	.	30.8*	-11.5	4.7	-1.7	45.6*	RORg counter=>40
O=C(Nc1cc([N+](=O)[O-])ccc1O)NC1CCS(=O)(=O)C1 (stereo not drawn)	2.0	-6.9	15.8*	-0.1	-3.2	2.6	14.7*
Cc1ccc2cc(/C=C(\C#N)C(N)=O)c(N3CCCCC3)nc2c1	2.8	.	4.1	-9.3	0.2	3.9	.
CCOC(=O)/C(C#N)=C/c1cc2ccccc2nc1N1CCCCC1	2.8	.	43.3*	-4.4	-3.4	-2.2	43.0*	RORg counter=>40
Cc1cc(Br)ccc1NC(=O)c1sc2ncnc(N3CCN(c4ccccn4)CC3)c2c1C	-4.1	-10.7	69.1*	-0.2	-3.1	-0.2	8.5
COc1ccc(NC(=O)c2sc3nc(C)nc(N4CCN(c5ccccn5)CC4)c3c2C)cc1Cl	-9.7	-7.4	18.4	-5.9	14.8	-1.4	.
Cc1c(C(=O)Nc2c(F)cccc2F)sc2ncnc(N3CCN(c4ccccc4)CC3)c12	2.9	.	4.2	-0.4	5.6	1.0	.
COc1ccc(NC(=O)c2sc3ncnc(N4CCN(c5ccccn5)CC4)c3c2C)cc1Cl	4.4	-4.1	28.3*	16.8	4.7	-1.6	20.3*
Cc1c(C(=O)NC2CCCCC2)sc2ncnc(N3CCN(c4ccccc4)CC3)c12	1.7	-16.9	39.2*	-10.4	-4.6	2.7	16.3
CO[C@H]1CN(C)C(=O)c2ccc(NC(=O)Nc3cccc(F)c3)cc2OC[C@H](C)N(C(C)=O)C[C@H]1C	1.1	.	.	-9.1	.	.	.
COc1ccc(S(=O)(=O)Nc2ccc3c(c2)C(=O)N([C@H](C)CO)C[C@H](C)[C@H](CN(C)C(=O)CCCN(C)C)OCCCC[C@@H](C)O3)cc1	-8.4	-6.7	.	40.5	.	.	.
COC(=O)c1cc(COc2ccc3c4c(c(=O)oc3c2)CCCC4)c(C)o1	.	-16.8	6.2	.	-7.6	2.8	.
COC(=O)c1ccc(COc2ccc3c4c(c(=O)oc3c2)CCC4)o1	.	-14.5	33.9*	.	7.4	0.2	1.2
COc1ccc(C(=O)c2ccc(OC)c(Br)c2)cc1Br	-0.8	13.5	113.4*	0.7	-2.7	-2.0	76.7*	RORg counter=>40
COc1ccc(C(=O)c2cccc(C(=O)c3ccc(OC)c(C)c3)c2)cc1C	3.6	.	-1.0	-0.1	-25.3	-3.4	.
CCC(=O)c1ccc(N2CCN(C(=O)c3ccc(F)cc3)CC2)c(F)c1	3.5	-2.8	-3.4	-7.7	8.5	-4.8	.
COc1ccc(C(=O)c2ccc(N3CCN(C(=O)c4ccc(F)cc4)CC3)c(F)c2)cc1Br	.	-3.5	27.6*	.	-3.6	-0.1	23.8*
CC(C)NC(=O)N[C@H]1C=C[C@@H](CC(=O)NCCN2CCCC2)O[C@@H]1CO	-6.3	-17.9	.	-1.7	.	.	.
Cc1noc(C)c1NC(=O)Nc1cccc2c1O[C@@H](CN(C)Cc1ccncc1)[C@@H](C)CN([C@H](C)CO)C2=O	-6.3	.	.	-6.0	.	.	.

Structures above that contain a cyano group, in the order listed:
SMILES	ERp5 block	UUG fidelity	NR1D1 modulator	INS-1E GSIS act	PDI turbidity	SMARCA2 act	NR1D1 mod conf	others
Cc1ccc2cc(/C=C(\C#N)C(N)=O)c(N3CCCCC3)nc2c1	2.8	.	4.1	-9.3	0.2	3.9	.
CCOC(=O)/C(C#N)=C/c1cc2ccccc2nc1N1CCCCC1	2.8	.	43.3*	-4.4	-3.4	-2.2	43.0*	RORg counter=>40

Quoted at random: 2 records from the list, in no set order.
SMILES	ERp5 block	UUG fidelity	NR1D1 modulator	INS-1E GSIS act	PDI turbidity	SMARCA2 act	NR1D1 mod conf	others
Cc1c(C(=O)NC2CCCCC2)sc2ncnc(N3CCN(c4ccccc4)CC3)c12	1.7	-16.9	39.2*	-10.4	-4.6	2.7	16.3
Cc1c(C(=O)Nc2c(F)cccc2F)sc2ncnc(N3CCN(c4ccccc4)CC3)c12	2.9	.	4.2	-0.4	5.6	1.0	.

(more compounds)
SMILES	ERp5 block	UUG fidelity	NR1D1 modulator	INS-1E GSIS act	PDI turbidity	SMARCA2 act	NR1D1 mod conf	others
COc1ccccc1Oc1ccc2c(c1)C(=O)N(c1ccc(Br)c3cccnc13)C2=O	.	-12.6	38.7*	.	-4.3	1.3	22.2*
O=C(NCc1ccccc1)C(c1cc2ccccc2o1)n1c(=O)c(-c2cc3ccccc3[nH]2)nc2ccccc21 (stereo not drawn)	-2.5	.	5.8	4.1	.	-2.3	.
O=C(NCc1ccccc1)C(c1cc2ccccc2o1)n1c(=O)c(-c2ccccc2)nc2ccccc21 (stereo not drawn)	-4.9	.	46.9*	3.6	.	2.4	28.0*	RORg counter=>40
COc1ccc(C(=O)c2c(-c3ccc(OC)cc3)oc3ccc(-c4ccc(OC)nc4)cc23)cc1	-0.1	-11.0	17.1*	5.1	6.2	1.0	1.6
C[C@H]1CN([C@@H](C)CO)C(=O)c2cccc(NC(=O)Nc3ccc(F)cc3)c2O[C@H]1CN(C)S(C)(=O)=O	-5.7	-1.8	.	17.1	.	.	.
N#Cc1cnn2c1nc(N1CCCCC1)c1ccccc12	.	-14.7	31.9*	.	-11.8	5.0	3.5
COc1ccc2c3c([nH]c2c1)[C@H](CO)N(C(=O)c1ccccn1)CC31CN(C(=O)C2CC2)C1	-0.7	.	.	-1.5	.	.	.
Cc1ccc2nc(N3CCN(c4cccc(C)c4C)CC3)c3nnnn3c2c1	.	.	28.4*	.	4.5	-2.0	70.9*	RORg counter=>40
CO[C@H]1CN(C)C(=O)c2ccc(NS(=O)(=O)c3ccc(F)cc3)cc2OC[C@H](C)NC[C@H]1C	-8.0	.	.	7.8	.	.	.
Cc1cc(Br)cn2c(Cc3cccc(F)c3)c(-c3ccc(C#N)cc3)nc12	-6.5	.	27.1*	-12.7	.	1.4	13.2*
Cc1cc(Br)cn2c(Cc3ccccc3C(F)(F)F)c(-c3cccc(Cl)c3)nc12	2.0	.	23.8*	-2.6	.	2.5	0.4
Cc1cc(Br)cn2c(Cc3cccc(F)c3)c(-c3cccc(Cl)c3)nc12	-7.7	.	18.8*	-3.1	.	0.1	8.0
C[C@H](CO)N1C[C@H](C)[C@H](CN(C)S(=O)(=O)c2cn(C)cn2)OCc2cn(nn2)CCCC1=O	1.5	7.4	.	-6.8	.	.	.
S=c1[nH]ncn2c1cc1oc3ccccc3c12	-5.0	-17.0	33.7*	1.8	1.4	0.1	20.0*
O=C(CSc1nnc(-c2cccs2)n1-c1ccccc1)N1CCCc2ccccc21	.	-12.8	109.7*	.	8.3	0.2	100.7*	RORg counter=i
CCOc1ccc(-n2c(SCC(=O)N3CCc4ccccc43)nnc2-c2c[nH]c3ccccc23)cc1	4.3	-17.2	93.0*	-2.7	.	-1.3	23.9*
COC(=O)C[C@@H]1CC[C@@H]2[C@@H](COc3ccc(NC(=O)c4cc(C)on4)cc3C(=O)N2C)O1	2.2	2.5	.	15.6	.	.	.
O=C(Nc1ccc2c(c1)C(=O)N(c1ccccc1)C2=O)c1cccs1	1.5	.	19.6*	10.3	-0.7	-3.1	-5.5
COc1ccc(-c2c(C#N)c(C)nc3c2C(=O)c2ccccc2-3)cc1	.	-16.4	150.6*	.	-3.7	-0.6	122.2*
O=C(c1cccc(F)c1)N1CC(=O)N2[C@@H](CO)[C@H](c3ccc(C4=CCCC4)cc3)[C@@H]2C1	-0.4	.	.	13.2	.	.	.
Cc1noc(C)c1NC(=O)N(C)C[C@H]1OCCCC[C@@H](C)Oc2ccc(NC(=O)c3ccccc3)cc2C(=O)N([C@@H](C)CO)C[C@@H]1C	-0.7	1.6	.	-2.0	.	.	.
CCCCN(CCCC)Cc1cc(=O)oc2cc(C)cc(C)c12	-7.3	-5.4	18.9*	-1.5	.	-2.9	-0.8
Clc1ccc(-c2cnc(Oc3ccccc3)nc2)cc1	.	.	5.1	-7.6	-0.4	5.6	.
